{"source": "PubChem BioAssay AID1463", "about": "(National Center for Advancing Translational Sciences (NCATS), 2008)", "note": "Only a part is listed here, and it is no random draw. Inconclusive results are not listed. Some salts or complexes appear as unconnected parts, following the source record. Activity calls are given as the source filed them. Calls follow the shape of the dose curve; as a rule, active = well fitted curve in the direction sought with a large enough effect; inconclusive = small, poorly fitted or top-dose-only effect; inactive = flat fitted curve, though single readings scatter. % is scaled to controls: 0 for no effect and ±100 for the full control effect."}
{"experiment": "Counterscreen qHTS for Inhibitors of Tau Fibril Formation, Fluorescence Polarization; also: nearly all actives have a fitted effect of over 55% in size", "details": "tau K18 P301L (four-repeat tau fragment) Alexa594 fluorescence, heparin fibrillization; at 57.7 µM (top of the series)"}
{"smiles": "CCOc1ccc(C)cc1CN(CCCl)CCCl", "activity change, negative = decrease": "inactive: -9.01%"}
{"smiles": "O=C(NCC1(N2CCOCC2)CCCCC1)c1ccc(Cl)cc1", "activity change, negative = decrease": "inactive: -2.1%"}
{"smiles": "COc1ccc(NC2CCN(CCc3ccccc3)CC2)c(OC)c1", "activity change, negative = decrease": "inactive: -14.4%"}
{"smiles": "COc1ccccc1C(=O)NCC1(N2CCOCC2)CCCCC1", "activity change, negative = decrease": "inactive: -7.14%"}
{"smiles": "Cc1ccc(OCC(C)C)c(CN(CCCl)CCCl)c1", "activity change, negative = decrease": "inactive: 2.63%"}
{"smiles": "COc1ccc(C(=O)NCC2(N3CCCCC3)CCCCC2)c(OC)c1OC", "activity change, negative = decrease": "inactive: 0.927%"}
{"smiles": "O=C(NCC1(N2CCOCC2)CCCCC1)c1cc2ccccc2o1", "activity change, negative = decrease": "inactive: -10.2%"}
{"smiles": "CCOC(=O)N1CCC(Nc2ccc(OC)cc2)CC1", "activity change, negative = decrease": "inactive: -4.06%"}
{"smiles": "O=C(OC1CN2CCC1CC2)C1c2ccccc2Oc2ccccc21", "note": "(configuration not stated)", "activity change, negative = decrease": "inactive: 1.75%"}
{"smiles": "N#CC1(Nc2ccccc2)CCN(Cc2ccccc2)CC1", "activity change, negative = decrease": "inactive: -14.8%"}
{"smiles": "COc1ccc(CN(CCCl)CCCl)cc1Cl", "activity change, negative = decrease": "inactive: -8.81%"}
{"smiles": "CN(C)c1cccc(C(=O)NCC2(N3CCCCC3)CCCCC2)c1", "activity change, negative = decrease": "inactive: -1.13%"}
{"smiles": "CC(C)c1ccc(NC2CCN(C(=O)OC(C)(C)C)CC2)cc1", "activity change, negative = decrease": "inactive: -5.99%"}
{"smiles": "COc1ccc2c(c1O)-c1c(O)c(OC)cc3c1[C@H](C2)[N+](C)(C)CC3.O=[N+]([O-])c1cc([N+](=O)[O-])c([O-])c([N+](=O)[O-])c1[O-]", "activity change, negative = decrease": "inactive: -16.5%"}
{"smiles": "O=C(OC1CN2CCC1CC2)c1ccc([N+](=O)[O-])cc1", "note": "(configuration not stated)", "activity change, negative = decrease": "inactive: -2.83%"}
{"smiles": "CCCCOc1ccccc1C(=O)NCC1(N2CCOCC2)CCCCC1", "activity change, negative = decrease": "inactive: -9.98%"}
{"smiles": "O=C(NCC1(N2CCOCC2)CCCCC1)c1ccccc1Br", "activity change, negative = decrease": "inactive: 9.31%"}
{"smiles": "CCOc1ccc(C(=O)NCC2(N3CCOCC3)CCCCC2)cc1", "activity change, negative = decrease": "inactive: -0.596%"}
{"smiles": "O=C(NCC1(N2CCCCC2)CCCCC1)c1cccc([N+](=O)[O-])c1", "activity change, negative = decrease": "inactive: 1.87%"}
{"smiles": "N#CC1(Nc2ccccc2)CCN(CCc2ccccc2)CC1", "activity change, negative = decrease": "inactive: 0.0045%"}
{"smiles": "CCCOc1cccc(C(=O)NCC2(N3CCOCC3)CCCCC2)c1", "activity change, negative = decrease": "inactive: -3.3%"}
{"smiles": "O=[N+]([O-])c1cc([N+](=O)[O-])c(NCC2CCS(=O)(=O)C2)c([N+](=O)[O-])c1", "note": "(configuration not stated)", "activity change, negative = decrease": "inactive: -3.5%"}
{"smiles": "COc1ccc(NC2CCN(C(=O)OC(C)(C)C)CC2)cc1", "activity change, negative = decrease": "inactive: -9.92%"}
{"smiles": "CN1CCN(CCOC(=O)C(O)(c2ccccc2)c2ccccc2)CC1", "activity change, negative = decrease": "inactive: 0.131%"}
{"smiles": "O=C(NCC1(N2CCOCC2)CCCCC1)c1cc(=O)[nH]c2ccccc12", "activity change, negative = decrease": "inactive: -11%"}
{"smiles": "O=C(NCC1(N2CCOCC2)CCCCC1)c1ccc([N+](=O)[O-])cc1", "activity change, negative = decrease": "inactive: -5.88%"}
{"smiles": "O=C(NCC1(N2CCOCC2)CCCCC1)c1ccccc1[N+](=O)[O-]", "activity change, negative = decrease": "inactive: -5.8%"}
{"smiles": "N#Cc1ccc(C(=O)NCC2(N3CCCCC3)CCCCC2)cc1", "activity change, negative = decrease": "inactive: 2.26%"}
{"smiles": "CCOC(=O)C(CC)C1=NC(C)(C)Cc2ccccc21.O=[N+]([O-])c1cc([N+](=O)[O-])c(O)c([N+](=O)[O-])c1", "note": "(configuration not stated)", "activity change, negative = decrease": "inactive: -6.01%"}
{"smiles": "c1ccc(CN2CCC(Nc3ccccc3)CC2)cc1", "activity change, negative = decrease": "inactive: -6.01%"}
{"smiles": "O=C(NCC1(N2CCOCC2)CCCCC1)c1ccccc1", "activity change, negative = decrease": "inactive: 2.05%"}
{"smiles": "COc1ccc(C(=O)NCC2(N3CCOCC3)CCCCC2)cc1OC", "activity change, negative = decrease": "inactive: -0.616%"}
{"smiles": "N/C(=N\\O)c1c(N)no[n+]1[O-]", "activity change, negative = decrease": "inactive: 3.36%"}
{"smiles": "O=C(OC1CN2CCC1CC2)C1c2ccccc2C=Cc2ccccc21", "note": "(configuration not stated)", "activity change, negative = decrease": "inactive: 2.89%"}
{"smiles": "O=C(O)c1cccc(Nc2c([N+](=O)[O-])cc([N+](=O)[O-])cc2[N+](=O)[O-])c1", "activity change, negative = decrease": "inactive: -6.36%"}
{"smiles": "CCOc1ncccc1C(=O)NCC1(N2CCOCC2)CCCCC1", "activity change, negative = decrease": "inactive: 1.69%"}
{"smiles": "CC(C)(C)OC(=O)N1CCC(Nc2ccccc2)CC1", "activity change, negative = decrease": "inactive: -7.99%"}
{"smiles": "CCC(CO)(C(=O)OC1CN2CCC1CC2)c1ccccc1", "note": "(configuration not stated)", "activity change, negative = decrease": "inactive: 3.55%"}
{"smiles": "COc1cc(OC)cc(C(=O)NCC2(N3CCOCC3)CCCCC2)c1", "activity change, negative = decrease": "inactive: 7.63%"}
{"smiles": "COc1cc(C(=O)NCC2(N3CCOCC3)CCCCC2)cc(OC)c1OC", "activity change, negative = decrease": "inactive: 3.64%"}
{"smiles": "CCCOc1ccc(C)cc1CN(CCCl)CCCl", "activity change, negative = decrease": "inactive: -9.42%"}
{"smiles": "CN(C)C1(CNC(=O)c2ccc(C(C)(C)C)cc2)CCCCC1", "activity change, negative = decrease": "inactive: -1.67%"}
{"smiles": "Fc1ccccc1NC1CCN(Cc2ccccc2)CC1", "activity change, negative = decrease": "inactive: 8.13%"}
{"smiles": "CCN1CCC(Nc2cccc(F)c2)CC1", "activity change, negative = decrease": "inactive: -12.5%"}
{"smiles": "CC(C)(C)c1ccc(C(=O)NCC2(N3CCOCC3)CCCCC2)cc1", "activity change, negative = decrease": "inactive: -8.66%"}
{"smiles": "CN(C)c1ccc(C(=O)NCC2(N3CCCCC3)CCCCC2)cc1", "activity change, negative = decrease": "inactive: 7.53%"}
{"smiles": "Cc1ccccc1C(=O)NCC1(N(C)C)CCCCC1", "activity change, negative = decrease": "inactive: 2.17%"}
